# Laboratory results taken from patent US20070060638A1, “Methods and therapies for potentiating therapeutic activities of a cannabinoid receptor agonist via administration of a cannabinoid receptor antagonist” (priority 2005, published 2007).
# The chains behind the UniProt entries cited, without tags or fusion partners.
# UniProt P20272, whole entry: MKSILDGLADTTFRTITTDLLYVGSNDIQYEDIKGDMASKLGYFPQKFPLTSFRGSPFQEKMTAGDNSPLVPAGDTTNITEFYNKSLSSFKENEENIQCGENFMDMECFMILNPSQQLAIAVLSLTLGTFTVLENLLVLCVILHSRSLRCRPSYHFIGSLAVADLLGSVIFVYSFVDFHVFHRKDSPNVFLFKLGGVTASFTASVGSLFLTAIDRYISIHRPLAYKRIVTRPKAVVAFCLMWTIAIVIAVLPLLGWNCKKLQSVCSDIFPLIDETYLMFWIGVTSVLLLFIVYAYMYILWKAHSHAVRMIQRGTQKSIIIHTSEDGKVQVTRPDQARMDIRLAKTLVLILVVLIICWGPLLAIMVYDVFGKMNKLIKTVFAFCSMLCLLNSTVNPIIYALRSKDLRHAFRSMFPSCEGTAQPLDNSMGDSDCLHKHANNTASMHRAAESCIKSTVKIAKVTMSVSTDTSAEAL
# Target: CB1 receptors (Rattus norvegicus, UniProt P20272)
# Conditions: striatal tissue, ultra-low dose SR 141716 combined with WIN, chronic treatment
smiles,measurement,value
"Cc1c(C(=O)NN2CCCCC2)nn(-c2ccc(Cl)cc2Cl)c1-c1ccc(Cl)cc1 [SR, N-(Piperidin-1-yl)-5-(4-chlorophenyl)-1-(2,4-dichlorophenyl)-4-methyl-1H-pyrazole-3-carboxamide]",effect on WIN-induced CB1 receptor G-protein coupling switch,prevented this coupling switch
